Results on four molecules are retold here after patent US12319655B2, “RAF kinase inhibitors and methods of use thereof” (Deciphera Pharmaceuticals, LLC, priority 2021, dated 2025).

Chains of the proteins cited; added tags and fusions are not shown. A line that says so, or that is headed by a name, gives the form on record, which may keep a tag or linker. Residues count along the entry.
UniProt P10398, 273-606 with tags or gaps Y301D/Y302D limits assumed: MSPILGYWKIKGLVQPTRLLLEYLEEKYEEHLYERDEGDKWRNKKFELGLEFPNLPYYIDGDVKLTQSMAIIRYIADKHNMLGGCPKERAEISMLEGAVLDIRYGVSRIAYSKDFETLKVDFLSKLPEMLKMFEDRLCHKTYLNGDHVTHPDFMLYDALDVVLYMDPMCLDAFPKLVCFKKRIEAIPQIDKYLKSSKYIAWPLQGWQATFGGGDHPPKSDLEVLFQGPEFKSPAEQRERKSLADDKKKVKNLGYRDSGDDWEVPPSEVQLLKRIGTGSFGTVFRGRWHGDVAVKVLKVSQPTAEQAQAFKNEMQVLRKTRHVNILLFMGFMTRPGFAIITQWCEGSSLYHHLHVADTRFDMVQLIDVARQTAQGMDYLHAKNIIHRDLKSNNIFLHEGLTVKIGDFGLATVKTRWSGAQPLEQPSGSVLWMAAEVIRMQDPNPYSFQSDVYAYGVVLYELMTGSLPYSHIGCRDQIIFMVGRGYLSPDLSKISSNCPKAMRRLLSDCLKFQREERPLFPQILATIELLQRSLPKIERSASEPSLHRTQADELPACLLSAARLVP
UniProt P15056, 416-766 V600E limits assumed: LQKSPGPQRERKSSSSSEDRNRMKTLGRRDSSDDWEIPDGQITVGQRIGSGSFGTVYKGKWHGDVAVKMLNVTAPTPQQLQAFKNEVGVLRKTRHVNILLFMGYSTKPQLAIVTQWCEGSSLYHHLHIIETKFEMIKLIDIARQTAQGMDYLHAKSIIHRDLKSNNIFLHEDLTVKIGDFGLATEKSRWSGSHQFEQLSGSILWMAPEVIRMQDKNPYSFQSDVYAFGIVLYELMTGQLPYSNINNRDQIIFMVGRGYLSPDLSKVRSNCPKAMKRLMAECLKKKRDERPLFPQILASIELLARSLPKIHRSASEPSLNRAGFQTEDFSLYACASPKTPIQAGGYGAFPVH

The target of test [1] is A-Raf kinase (SEQ. ID No: 1) (Homo sapiens (Human), UniProt P10398, Y301D/Y302D). Briefly: Biochemical Assay for A-Raf (1). The note with it: read-out: ARAF (1) IC50; Table J, assay version (1). The protocol: Biochemical Assay for A-Raf (1)
Activity of A-Raf kinase (SEQ. ID No: 1) was determined spectroscopically using a coupled pyruvate kinase/lactate dehydrogenase assay that continuously monitors the ATP hydrolysis-dependent oxidation of NADH (e.g., Schindler et al., Science, 2000, 289, 1938-1942). Assays were conducted in 384-well plates (100 μL final volume) using 5.55 nM A-Raf (Sigma), 1.5 units pyruvate kinase, 2.1 units lactate dehydrogenase, 1 mM phosphoenol pyruvate, 0.28 mM NADH, 30.1 nM MEK (SignalChem), and 1 mM ATP in assay buffer (100 mM Tris, pH 7.5, 15 mM MgCl2, 0.5 mM DTT, 0.1% octyl-glucoside, 0.002% (w/v) BSA, and 0.002% Triton X-100). Inhibition of A-Raf was measured by adding serial diluted test compound (final assay concentration of 1% DMSO). A decrease in absorption at 340 nm was monitored continuously for 6 h at 30° C. on a multi-mode microplate reader (BioTek). The reaction rate was calculated using the 4 to 5 h time frame. The reaction rate at each concentration of compound was converted to percent inhibition using controls (i.e., reaction with no test compound and reaction with a known inhibitor) and IC50 values were calculated by fitting a four-parameter sigmoidal curve to the data using Prism (GraphPad software).

The next test deals with H2405 cells. Briefly: H2405 Cell Proliferation Assay (1). The note with it: read-out: H2405 (1) IC50. As to the method: H2405 Cell Proliferation Assay (1)
(§1) H2405 cells (catalog #CRL-5994) are obtained from the American Type Culture Collect (ATTC, Manassas, VA). Briefly, cells were grown in RPMI 1640 supplemented with 5% characterized fetal bovine serum (Invitrogen, Carlsbad, CA) and 1% Penicillin/Streptomycin/L-Glutamine at 37° C., 5% CO2, and 95% humidity. Cells are expanded until reaching 70-95% confluency at which point they are sub-cultured or harvested for assay use. A serial dilution of test compound is dispensed into a 96-well black clear bottom plate in triplicate. Three thousand cells are added per well in 200 μL complete growth medium in the 96-well plate. Plates are incubated for 67-72 h at 37° C., 5% CO2, and 95% humidity. At the end of the incubation, 40 μL of a 440 μM solution of resazurin (Sigma, St. Louis, MO) in PBS is added to each well of the plate and plates are incubated for an additional 5-6 h at 37° C., 5% CO2, and 95% humidity. Plates are read on a Synergy2 or equivalent reader (Biotek, Winooski VT) using an excitation of 540 nm and an emission of 600 nm. Data is analyzed using Prism software (GraphPad, San Diego, CA) to calculate IC50 values.

Test [2] has as its target B-Raf (V600E) (SEQ. ID NO: 4) kinase (Homo sapiens (Human), UniProt P15056, V600E). In words: Biochemical Assay for B-Raf (V600E) (1). The note with it: read-out: BRAF VE (1) IC50, Table J, assay version (1). As to the method: Biochemical Assay for B-Raf (V600E) (1)
Activity of B-Raf (V600E) (SEQ. ID NO: 4) kinase was determined spectroscopically using a coupled pyruvate kinase/lactate dehydrogenase assay that continuously monitors the ATP hydrolysis-dependent oxidation of NADH (e.g., Schindler et al., Science, 2000, 289, 1938-1942). Assays were conducted in 384-well plates (100 μL final volume) using 0.03 nM B-Raf (SignalChem), 1.5 units pyruvate kinase, 2.1 units lactate dehydrogenase, 1 mM phosphoenol pyruvate, 0.28 mM NADH, 30.1 nM MEK (SignalChem), and 1 mM ATP in assay buffer (100 mM Tris, Ph 7.5, 15 mM MgCl2, 0.5 mM DTT, 0.1% octyl-glucoside, 0.002% (w/v) BSA, and 0.002% Triton X-100). Inhibition of B-Raf (V600E) was measured by adding serial diluted test compound (final assay concentration of 1% DMSO). A decrease in absorption at 340 nm was monitored continuously for 6 h at 30° C. on a multi-mode microplate reader (BioTek). The reaction rate was calculated using the 3 to 4 h time frame. The reaction rate at each concentration of compound was converted to percent inhibition using controls (i.e., reaction with no test compound and reaction with a known inhibitor) and IC50 values were calculated by fitting a four-parameter sigmoidal curve to the data using Prism (GraphPad software).

A further test deals with A375 cells. Briefly: A375 Cell Proliferation Assay (1). The note with it: read-out: A375 (1) IC50. The protocol:
For Table J, “+” refers to an IC50 less than or equal to 100 nM; “++” refers to an IC50 greater than 100 nM and less than or equal to 500 nM; “+++” refers to an IC50 greater than 500 nM and less than or equal to 1000 nM; and “++++” refers to an IC50 greater than 1000 nM and less than or equal to 10000 nM. A375 Cell Proliferation Assay (1)
as §1, with “A375 cells” for “H2405 cells”, “(catalog (#CRL-1619)” for “(catalog #CRL-5994)”, “in DMEM High Glucose” for “in RPMI 1640”, “with 10%” for “with 5%”, “triplicate. Two” for “triplicate. Three”, “thousand five hundred” for “thousand”

As a reminder, the IC50 is the point on the concentration scale where inhibition reaches its midpoint. In the case of `Cc1ccc(NC(=O)c2ccnc(C(C)(C)C#N)c2)cc1-c1cccc(-c2cc(NC3CN(C)C3)ncn2)c1`, the IC50 in test [1] was 1000 to 10000 nM; in the test on H2405 cells, 1000 to 10000 nM; in test [2] it was less than 100 nM; in the test on A375 cells it was 1000 to 10000 nM.
Regarding `CNC(=O)c1cc(-c2cc(-c3cc(NC(=O)c4ccnc(C(F)(F)F)c4)ccc3C)ccn2)ccn1`, the half-inhibitory concentration (IC50) in test [1] was 1000 to 10000 nM; with H2405 cells, 100 to 500 nM; in test [2], less than 100 nM; with A375 cells, 100 to 500 nM.
`Cc1ncc(NC(=O)c2cn(C(C)C)nn2)cc1-c1cccc(-c2cc(NC(=O)C3CC3)ncn2)c1`: the half-maximal inhibitory concentration (IC50) is 1000 to 10000 nM in test [1], 100 to 500 nM with H2405 cells, less than 100 nM in test [2] and 100 to 500 nM with A375 cells.
In the case of `CNC(=O)c1cc(-c2cc(-c3cc(NC(=O)c4ccnc(C(C)(C)C#N)c4)ccc3C)cc(C)n2)ccn1`, the IC50 is 1000 to 10000 nM in test [1], 100 to 500 nM in the test on H2405 cells, less than 100 nM in test [2] and less than 100 nM in the test on A375 cells.
